# Results as given in patent US6464961B2, “Polymeric delivery and release systems for oral care actives” (ISP Investments Inc., priority 2000, dated 2002).
# Assay: Aqueous hydrolysis of polymer-bound menthyl ester (slurry in DI water, FTIR and odor)
# Format: physicochemical
# Experimental: The product of Example 1 (2 g of finely ground powder) was slurried with Dl water (18 g) in a sealed jar. […] It was agitated with a magnetic stirrer with gentle heat (36 to 37° C.) for 4 hours. The freeze-dried sample was evaluated by FTIR (as a KBR pellet).
# [1] = slurry in DI water, 36 to 37° C., kept overnight
substance,measurement,setting,value
Menthyl Ester of Maleic Anhydride-Methyl Vinyl Ether Copolymer (Gantrez® AN) [Example 1],anhydride absorbance (FTIR),"2 g powder slurried in 18 g DI water, 36 to 37° C., agitated 4 hours, freeze-dried sample, KBr pellet",disappeared
same,ester band at 1736 cm-1 (FTIR),"slurry in DI water, 36 to 37° C., 4 hours",persisted
same,ester band (FTIR),[1],significantly reduced
same,menthol odor of slurry,[1],strong menthol odor
same,menthol odor of slurry,"slurry in DI water, at start, before heating",very faint menthol odor
